Experimental data as given in patent US20260224597A1, “METHODS FOR ACTIVATING IMMUNE CELLS TO KILL BACTERIA” (The Texas A&M University System, priority 2023, published 2026).

Key:
IP6K = details: indirect, through interaction with PI3K (LY 294002), PI4K (PAO) or PLC (U73122); cited from earlier work
human macrophages = details: macrophages treated with GM-CSF, all tested concentrations, 24 hours of incubation

Compound | IP6K activity (IP6K) | metabolic activity of macrophages (human macrophages)
O=[As]c1ccccc1 (stereo not drawn) | decreases IP6K activity | 
1-[6-((17β-3-Methoxyestra-1,3,5(10)-trien-17-yl)amino)hexyl]-1H-pyrrole-2,5-dione | decreases IP6K activity | 
(1R*,2S*)-4-[2-Chloro-6-(methylamino)-9H-purin-9-yl]-2-(phosphonooxy)bicyclo[3.1.0]hexane-1-methanol dihydrogen phosphate ester diammonium salt |  | None of the concentrations of MRS2279 and gallein significantly altered
